Measured values published in PubChem BioAssay AID1347080 (ICCB-Longwood Screening Facility, Harvard Medical School, 2019).
Only a part is listed here, and it is no random draw. Calls of active or inactive are those of the source.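 The calls were made as follows: active = compounds whose cell count with miR-34 switched on is under 0.7 times the count with it off; inactive = the rest.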

Assay: sensitizers of A549 cells to miR-34 induction, primary screen, imaging, A549 dox-inducible miR-34, nuclei and caspase counts (AID 1347080); also: test concentration not given here
Conditions: A549 miR-34 inducible, Hoechst nuclei count, 48 h; hits give low values; cell number ratio, induced over uninduced

| SMILES | fold change |
| --- | --- |
| CN(C(=O)Cc1ccc(Cl)c(Cl)c1)[C@@H]1CCCC[C@H]1N1CCCC1 | inactive: 0.982 |
| CN(C(=O)Cc1ccccc1)[C@@H]1CC[C@]2(CCCO2)C[C@H]1N1CCCC1 | inactive: 0.952 |
| NC(=O)Nc1ccc([As](=O)(O)O)cc1 | inactive: 0.842 |
| CN(C(=O)Cc1ccc(Cl)c(Cl)c1)[C@@H]1CC[C@]2(CCCO2)C[C@H]1N1CCCC1 | inactive: 1.01 |
| CN(C(=O)Cc1ccc(Cl)c(Cl)c1)[C@@H]1CCCC[C@@H]1N1CCCC1 | inactive: 1.05 |
| O=C(OC1CN2CCC1CC2)c1ccccc1 (stereo not drawn) | inactive: 0.973 |
| O=C(O[C@H]1CN2CCC1CC2)C1NCc2ccccc2[C@@H]1c1ccccc1 (stereo partly drawn) | inactive: 0.93 |
| O=P(O)(O)F | inactive: 0.927 |
